From ChEMBL document CHEMBL4017489, “Design, Synthesis, and Evaluation of New Selective NM23-H2 Binders as c-MYC Transcription Inhibitors via Disruption of the NM23-H2/G-Quadruplex Interaction” (J Med Chem, 2017)

Protein sequences, listed by entry. Tags and fused reporters are not part of them.
UniProt P22392, whole entry: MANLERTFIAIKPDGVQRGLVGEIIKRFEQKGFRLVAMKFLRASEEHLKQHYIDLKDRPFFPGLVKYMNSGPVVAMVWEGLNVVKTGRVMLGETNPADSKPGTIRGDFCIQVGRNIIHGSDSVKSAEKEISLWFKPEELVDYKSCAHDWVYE

Target: Nucleoside diphosphate kinase B (Homo sapiens, UniProt P22392)
Assay: Binding affinity to NM23-H2 (unknown origin) assessed as ratio of Kd for protein interaction with biotin-labeled Pu22 c-myc G-quadruplex DNA in presence and absence of compound after 1 hr by ELISA
How it was run: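 Biotinylated Pu22 (annealed in 10 mM Tris-HCl pH 7.4, 100 mM KCl) bound to streptavidin plates; NM23-H2 from 4000 nM in ten twofold steps, preincubated 1 h at 25 °C with DMSO or 20 μM compound, then 3 h at 37 °C on plate; anti-NM23-H2/HRP/TMB, A450; Hill-fitted KD, ratio with/without compound; three experiments.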

Structure (SMILES) | Ratio
CN(C)CCCNc1cc2nc3n(c(=O)c2cc1F)CC/C3=C\c1ccc(OCc2ccccc2)cc1O | 4.1
O=C(NCCCN1CCCC1)c1ccc(/C=C2\CCn3c2nc2cc(NCCN4CCCC4)c(F)cc2c3=O)cc1 | 3.8
